Biological target: CXCR4 (Homo sapiens, UniProt P61073)
Assay: Competitive CXCR4 binding assay (12G5 antibody probe), wild-type CXCR4 transfected CHO cells
Set-up: expressed in transfected cells
Conditions: 250 ng/ml 12G5, 40 min on ice, FITC second antibody, mean ± S.E.M. of at least three independent experiments, SEM, read-out: IC50 (nM), inhibition of 12G5 binding to CXCR4
Description: The CXCR4-specific antibody, 12G5 was used as a probe for the competitive CXCR4 binding assay to evaluate the binding activity of CXCR4 antagonists.
Figure 1 Competitive CXCR4 binding curves of eleven CXCR4 antagonists The CXCR4 transfected CHO cells were incubated with different concentrations of antagonists and 250 ng/ml 12G5 antibody. The CXCR4-binding 12G5 antibody was recognized by FITC-conjugated anti-IgG second antibody. The cells treated with only second antibody were used as a negative control (0%) while cells treated with both 12G5 antibody and second antibody were used as a positive control (100%). Cells treated with CXCR4 antagonists were calculated in percentage relative to the positive and negative controls. The data were averages of at least three independent experiments and shown as mean ± standard error of the mean (S.E.M.).
The procedure for the CXCR4 competitive binding experiments was published previously. […] The fluorescence intensity was measured for excitation at 485 nm and emission at 535 nm using multimode plate reader (PerkinElmer). The IC50 values were calculated using graphpad Prism 7. […]

The chains behind the UniProt entries cited, without tags or fusion partners.
UniProt P61073, whole entry: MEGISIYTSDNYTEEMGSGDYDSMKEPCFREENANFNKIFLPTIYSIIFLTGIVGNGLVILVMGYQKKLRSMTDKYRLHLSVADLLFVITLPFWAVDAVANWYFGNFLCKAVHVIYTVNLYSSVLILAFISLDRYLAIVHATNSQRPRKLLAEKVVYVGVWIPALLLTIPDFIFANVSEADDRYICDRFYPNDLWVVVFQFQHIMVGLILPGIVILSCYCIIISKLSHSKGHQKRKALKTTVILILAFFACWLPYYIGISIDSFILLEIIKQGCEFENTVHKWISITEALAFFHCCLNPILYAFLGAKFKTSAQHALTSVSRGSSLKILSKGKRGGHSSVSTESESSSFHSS

- IC50: 15.6 ± 7.6 nM
Structure (SMILES): NCCCCN(Cc1nc2ccccc2[nH]1)[C@H]1CCCc2cccnc21 [AMD11070]
